Data taken from article PMC5640506.

Legend:
K6 affimer = test: ITC; monomeric affimer 5 μM in cell, diUb 30 μM in syringe; 25°C; PBS (18 mM Na2HPO4, 7 mM NaH2PO4 pH 7.2, 150 mM NaCl)
K33 affimer = test: as above

Substance	stoichiometry N (K6 affimer)	stoichiometry N (K33 affimer)
K6-linked diUb (from UniProt P0CG47 1-76)	0.46	–
K33-linked diUb (from UniProt P0CG47 1-76)	–	0.44
